Like-named read-outs stand apart in the source and are kept apart here.
Columns and labels:
[1] = target: T1, hMC4 (Homo sapiens, UniProt P32245); assay: Cyclic AMP bioassay (ECL), CHO-K1 cells expressing hMC4; assay type: cell-based; conditions: intracellular cAMP
T1 construct: expressed in transfected cells; host or cells: CHO-K1

By UniProt entry, the sequences of proteins in these tests, tags left out. Where a name states a change or a piece, a line headed by the entry shows the natural chain unless it says otherwise.
UniProt P32245, whole entry: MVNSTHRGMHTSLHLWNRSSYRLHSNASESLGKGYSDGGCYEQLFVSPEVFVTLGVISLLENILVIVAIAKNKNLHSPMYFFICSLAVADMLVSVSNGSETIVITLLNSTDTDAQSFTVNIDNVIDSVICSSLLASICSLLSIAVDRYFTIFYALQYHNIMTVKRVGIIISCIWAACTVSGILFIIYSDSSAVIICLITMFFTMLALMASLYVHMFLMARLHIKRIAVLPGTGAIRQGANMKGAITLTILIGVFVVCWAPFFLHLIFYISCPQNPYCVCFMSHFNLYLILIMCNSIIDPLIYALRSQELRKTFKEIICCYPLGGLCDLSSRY
UniProt Q01726: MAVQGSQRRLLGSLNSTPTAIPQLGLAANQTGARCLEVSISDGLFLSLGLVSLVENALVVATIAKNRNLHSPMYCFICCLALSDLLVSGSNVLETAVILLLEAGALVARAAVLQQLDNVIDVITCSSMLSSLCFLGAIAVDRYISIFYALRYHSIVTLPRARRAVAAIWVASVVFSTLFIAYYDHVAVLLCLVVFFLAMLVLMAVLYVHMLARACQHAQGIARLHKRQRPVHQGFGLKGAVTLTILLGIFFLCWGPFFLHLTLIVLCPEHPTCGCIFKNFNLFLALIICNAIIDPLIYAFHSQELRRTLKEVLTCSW
UniProt P41968: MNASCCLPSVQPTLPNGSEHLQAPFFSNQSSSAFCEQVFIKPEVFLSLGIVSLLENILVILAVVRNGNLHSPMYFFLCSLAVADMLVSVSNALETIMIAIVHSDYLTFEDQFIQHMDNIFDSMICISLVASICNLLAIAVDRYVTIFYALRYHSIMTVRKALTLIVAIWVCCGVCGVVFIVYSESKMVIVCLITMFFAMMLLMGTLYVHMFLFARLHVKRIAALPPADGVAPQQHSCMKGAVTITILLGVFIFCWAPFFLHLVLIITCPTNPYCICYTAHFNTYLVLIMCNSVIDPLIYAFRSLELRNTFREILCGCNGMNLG
UniProt P33032: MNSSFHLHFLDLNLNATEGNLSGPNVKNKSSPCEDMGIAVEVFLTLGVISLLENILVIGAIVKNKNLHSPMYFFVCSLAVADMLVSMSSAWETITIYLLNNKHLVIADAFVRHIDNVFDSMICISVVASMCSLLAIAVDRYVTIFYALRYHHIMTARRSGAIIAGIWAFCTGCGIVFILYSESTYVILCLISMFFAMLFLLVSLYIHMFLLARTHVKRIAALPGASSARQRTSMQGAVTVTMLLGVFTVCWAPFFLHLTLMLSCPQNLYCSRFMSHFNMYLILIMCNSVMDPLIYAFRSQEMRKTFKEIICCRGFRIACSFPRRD

[2] = target: T2, hMC1 (Homo sapiens, UniProt Q01726); assay: Radioligand binding assay, [125I]-NDP-α-MSH, CHO-K1 membranes
T2 construct: expressed in transfected cells; host or cells: CHO-K1
Method: (§1) Cellular membranes used for the in vitro receptor binding assays were obtained from transgenic CHO-K1 cells stably expressing hMC-R receptor subtypes 1, 3, 4 or 5. […] The pellets were re-suspended in the same buffer and centrifuged at 50,000 g for 10 minutes at approximately 4° C. The washed pellets containing the cellular membranes were stored at approximately −80° C.
(§2) Filters were washed three times with 50 mM Tris-HCl at pH 7.4 at a temperature of approximately 0-4° C. and then assayed for radioactivity using a Packard Topcount® scintillation counter. Binding data were analyzed by computer-assisted non-linear regression analysis (XL fit; IDBS).

[3] = target: T1, hMC4; assay: as above
Method: as §1, §2

[4] = target: T3, hMC3 (Homo sapiens, UniProt P41968); assay: as above
T3 construct: expressed in transfected cells; host or cells: CHO-K1
Method: as §1, §2

[5] = target: T4, hMC5 (Homo sapiens, UniProt P33032); assay: as above
T4 construct: expressed in transfected cells; host or cells: CHO-K1
Method: as §1, §2

[6] = target: T4, hMC5; assay: Cyclic AMP bioassay (ECL), CHO-K1 cells expressing hMC5; assay type: cell-based; conditions: intracellular cAMP
[7] = competition with [125I]-NDP-α-MSH

CCCC[C@@H](C(=O)N[C@H]1CSSC[C@@H](C(N)=O)NC(=O)[C@H](Cc2c[nH]c3ccccc23)NC(=O)[C@H](CCCNC(=N)N)NC(=O)[C@@H](Cc2ccccc2)NC(=O)[C@H](Cc2cnc[nH]2)NC(=O)[C@@H](C)NC1=O)N1C(=O)NC2(CCCCC2)C1=O [Hydantoin(C(O)-(A6c-Nle))-cyclo(Cys-D-Ala-His-D-Phe-Arg-Trp-Cys)-NH2]
EC50 [1]: 1.8 nM

C[C@H]1NC(=O)[C@@H](NC(=O)CN2C(=O)CNC2=O)CSSC(C)(C)[C@@H](C(N)=O)NC(=O)[C@H](Cc2c[nH]c3ccccc23)NC(=O)[C@H](CCCNC(=N)N)NC(=O)[C@@H](Cc2ccccc2)NC(=O)[C@H](Cc2cnc[nH]2)NC1=O [Hydantoin(C(O)-(Gly-Gly))-cyclo(Cys-D-Ala-His-D-Phe-Arg-Trp-Pen)-NH2]
Ki [2]: 127 nM
Ki [3]: 10.4 nM
Ki [4]: 811 nM
Ki [5]: 381 nM

C[C@H]1NC(=O)[C@@H](N2C(=O)NC3(CCCCC3)C2=O)CSSC[C@@H](C(N)=O)NC(=O)[C@H](Cc2c[nH]c3ccccc23)NC(=O)[C@H](CCCNC(=N)N)NC(=O)[C@@H](Cc2ccccc2)NC(=O)[C@H](Cc2cnc[nH]2)NC1=O [cyclo[Hydantoin(C(O)-(A6c-Cys))-D-Ala-His-D-Phe-Arg-Trp-Cys]-NH2]
Ki [4]: 1760 nM

C[C@H]1NC(=O)[C@@H](N2C(=O)NC(C)(C)C2=O)CSSC[C@@H](C(N)=O)NC(=O)[C@H](Cc2c[nH]c3ccccc23)NC(=O)[C@H](CCCNC(=N)N)NC(=O)[C@@H](Cc2ccccc2)NC(=O)[C@H](Cc2cnc[nH]2)NC1=O [cyclo[Hydantoin(C(O)-(Aib-Cys))-D-Ala-His-D-Phe-Arg-Trp-Cys]-NH2]
Ki [5, 7]: > 10000 nM

N=C(N)NCCC[C@@H]1NC(=O)[C@@H](Cc2ccc3ccccc3c2)NC(=O)C2(CCCC2)N2C(=O)N[C@@H](CC(=O)NCCCC[C@@H](C(N)=O)NC(=O)[C@H](Cc3c[nH]c4ccccc34)NC1=O)C2=O [cyclo[Hydantoin(C(O)-(Asp-A5c))-D-2-Nal-Arg-Trp-Lys]-NH2]
Ki [5]: 1100 nM

N=C(N)NCCC[C@@H]1NC(=O)[C@@H](Cc2ccc3ccccc3c2)NC(=O)C2(CCNCC2)N2C(=O)N[C@@H](CC(=O)NCCCC[C@@H](C(N)=O)NC(=O)[C@H](Cc3c[nH]c4ccccc34)NC1=O)C2=O [cyclo[Hydantoin(C(O)-(Asp-Apc))-D-2-Nal-Arg-Trp-Lys]-NH2]
Ki [5]: 1100 nM

C[C@@H]1C(=O)N[C@@H](Cc2cnc[nH]2)C(=O)N[C@H](Cc2ccccc2)C(=O)N[C@@H](CCCNC(=N)N)C(=O)N[C@@H](Cc2c[nH]c3ccccc23)C(=O)N[C@H](C(N)=O)CSSC[C@@H]2NC(=O)N1C2=O [cyclo[Hydantoin(C(O)-(Cys-D-Ala))-His-D-Phe-Arg-Trp-Cys]-NH2]
Ki [2]: 230 nM
Ki [3]: 126 nM
Ki [4]: 7590 nM
Ki [5]: 7020 nM

C[C@@H]1C(=O)N[C@@H](Cc2cnc[nH]2)C(=O)N[C@H](Cc2ccccc2)C(=O)N[C@@H](CCCNC(=N)N)C(=O)N[C@@H](Cc2c[nH]c3ccccc23)C(=O)N[C@H](C(N)=O)CNC(=O)CC[C@@H]2NC(=O)N1C2=O [cyclo[Hydantoin(C(O)-(Glu-D-Ala))-His-D-Phe-Arg-Trp-Dap]-NH2]
Ki [5]: > 10000 nM
EC50 [6]: > 10000 nM

C[C@@H]1C(=O)N[C@@H](Cc2cnc[nH]2)C(=O)N[C@H](Cc2ccccc2)C(=O)N[C@@H](CCCNC(=N)N)C(=O)N[C@@H](Cc2c[nH]c3ccccc23)C(=O)N[C@H](C(N)=O)CCCCNC(=O)CC[C@@H]2NC(=O)N1C2=O [cyclo[Hydantoin(C(O)-(Glu-D-Ala))-His-D-Phe-Arg-Trp-Lys]-NH2]
Ki [5]: > 10000 nM

C[C@@H]1C(=O)N[C@@H](Cc2cnc[nH]2)C(=O)N[C@H](Cc2ccccc2)C(=O)N[C@@H](CCCNC(=N)N)C(=O)N[C@@H](Cc2c[nH]c3ccccc23)C(=O)N[C@H](C(N)=O)CCCNC(=O)CC[C@@H]2NC(=O)N1C2=O [cyclo[Hydantoin(C(O)-(Glu-D-Ala))-His-D-Phe-Arg-Trp-Orn]-NH2]
Ki [5]: > 10000 nM

CC(C)C[C@@H]1NC(=O)N([C@H]2CSSC[C@@H](C(N)=O)NC(=O)[C@H](Cc3c[nH]c4ccccc34)NC(=O)[C@H](CCCNC(=N)N)NC(=O)[C@@H](Cc3ccccc3)NC(=O)[C@H](Cc3cnc[nH]3)NC(=O)[C@@H](C)NC2=O)C1=O [cyclo[Hydantoin(C(O)-(Leu-Cys))-D-Ala-His-D-Phe-Arg-Trp-Cys]-NH2]
Ki [5, 7]: > 10000 nM

CC(C)[C@@H]1NC(=O)N([C@H]2CSSC[C@@H](C(N)=O)NC(=O)[C@H](Cc3c[nH]c4ccccc34)NC(=O)[C@H](CCCNC(=N)N)NC(=O)[C@@H](Cc3ccccc3)NC(=O)[C@H](Cc3cnc[nH]3)NC(=O)[C@@H](C)NC2=O)C1=O [cyclo[Hydantoin(C(O)-(Val-Cys))-D-Ala-His-D-Phe-Arg-Trp-Cys]-NH2]
Ki [5, 7]: > 10000 nM

From patent publication US8563000B2, “Melanocortin receptor ligands modified with hydantoin” (Ipsen Pharma S.A.S., priority 2007, dated 2013)
